One molecule from publication PMC13434705, “TRIM21-mediated ubiquitination of PARP1 regulated by the PI3K/AKT-STAT5A axis suppresses small cell lung cancer” (Nature Communications, 2026) can be followed below.

The assay addresses T1, His-PARP1, recombinant full-length (pET-28a-PARP1(FL)) (human).
T1 construct: PARP1, human, full length (FL), pET-28a plasmid, a gift from Caihong Yun; The His6 tag is followed by a TEV cleavage site (ENLYFQG); His tag kept in the His pull-down; also called recombinant PARP1; source: E. coli BL21(DE3), purified (Ni2+-agarose); not shown: His6, N-terminal, kept
Nature of the assay: pull-down; GST pull-down: 25 μg GST-TRIM21 on GST-tag resin, 25 μg recombinant PARP1, 2 h at 4 °C; Tris-HCl 50 mM, NaCl 200 mM, EDTA 1 mM, NP-40 1%, DTT 1 mM, MgCl2 10 mM, pH 8.0. Conditions: both partners purified.

B1: GST-TRIM21, recombinant full-length (natural protein, human, UniProt P19474 1-475, looked up)
chain: MASAARLTMMWEEVTCPICLDPFVEPVSIECGHSFCQECISQVGKGGGSVCPVCRQRFLLKNLRPNRQLANMVNNLKEISQEAREGTQGERCAVHGERLHLFCEKDGKALCWVCAQSRKHRDHAMVPLEEAAQEYQEKLQVALGELRRKQELAEKLEVEIAIKRADWKKTVETQKSRIHAEFVQQKNFLVEEEQRQLQELEKDEREQLRILGEKEAKLAQQSQALQELISELDRRCHSSALELLQEVIIVLERSESWNLKDLDITSPELRSVCHVPGLKKMLRTCAVHITLDPDTANPWLILSEDRRQVRLGDTQQSIPGNEERFDSYPMVLGAQHFHSGKHYWEVDVTGKEAWDLGVCRDSVRRKGHFLLSSKSGFWTIWLWNKQKYEAGTYPQTPLHLQVPPCQVGIFLDYEAGMVSFYNITDHGSLIYSFSECAFTGPLRPFFSPGFNDGGKNTAPLTLCPLNIGSQGSTDY
notes: TRIM21, human, cDNA expressing full-length TRIM21 cloned into pEXG-4T-1 (so in the source); GST kept in the GST pull-down (held on GST resin); the methods also describe removal of tags with TEV or thrombin; also called GST-tagged TRIM21; recombinant TRIM21; source: E. coli BL21(DE3), purified (GST-tag Purification Resin)
As to B1, the binding result was “binds”.
